# Experimental data: PMC7696216, “Bi-Functional Alginate Oligosaccharide–Polymyxin Conjugates for Improved Treatment of Multidrug-Resistant Gram-Negative Bacterial Infections” (Pharmaceutics, 2020)
# Where two headings read alike, the source gives them in different places.
# Tests used:
# [1] = system: P. aeruginosa R22; type: cell-based, Pseudomonas aeruginosa; settings: SI = IC50 (µg/mL, HK-2)/MIC (µg/mL)
# Experimental: (§1) The minimum inhibitory concentration (MIC) of colistin (as sulphate salt) and polymyxin B and their conjugates was determined using the broth microdilution method in MH broth in accordance with standard guidelines. Test organisms were suspended in MH broth (100 µL, 5 × 10^5 colony forming units (CFU)/mL) and incubated in 96-well microtitre plates in serial two-fold dilutions of the test compounds. […] Results were expressed as mode (n = 3). […] Selective activities of the polymyxins and OligoG–polymyxin conjugates were calculated as follows:Selectivity index (SI) = IC50 (μg/mL)/MIC (μg/mL).
# (§2) To account for turbidity caused by mucin, resazurin dye solution (30 µL, 0.01% w/v in dH2O) was added to each well and incubated for a further 3 h at 37 °C. Colour changes were observed and recorded.
# [2] = system: P. aeruginosa MDR 301; type: cell-based, Pseudomonas aeruginosa; settings: SI = IC50 (µg/mL, HK-2)/MIC (µg/mL)
# Experimental: as §1
# (§3) In addition, alginate oligomer–colistin conjugates (3 mg/mL) were incubated in PBS at pH 7 containing bacterial alginate lyase (1 and 10 U/mL) at 37 °C for 24 h, before preparing microtitre plates as described above.
# (§4) To study the antimicrobial efficacy of test compounds under more clinically relevant conditions, the MIC protocol was performed using AS medium instead of MH broth. The plates were incubated with resazurin as described above.
# [3] = system: P. aeruginosa NH57388A; assay: MIC, broth microdilution; type: cell-based, Pseudomonas aeruginosa; settings: SI = IC50 (µg/mL, HK-2)/MIC (µg/mL)
# Experimental: as §1, §4
# [4] = system: P. aeruginosa NCTC 10662; type: cell-based, Pseudomonas aeruginosa; settings: SI = IC50 (µg/mL, HK-2)/MIC (µg/mL)
# Experimental: as §1
# [5] = system: K. pneumoniae KP05 506; type: cell-based, Klebsiella pneumoniae
# Experimental: as §1, §3, §4
# [6] = system: K. pneumoniae IR25; type: cell-based, Klebsiella pneumoniae
# Experimental: as §1, §2
# [7] = system: A. baumannii MDR ACB; type: cell-based, Acinetobacter baumannii; settings: SI = IC50 (µg/mL, HK-2)/MIC (µg/mL)
# Experimental: as §1, §2
# [8] = system: A. baumannii 7789; type: cell-based, Acinetobacter baumannii; settings: SI = IC50 (µg/mL, HK-2)/MIC (µg/mL)
# Experimental: as §1, §3, §4
# [9] = system: E. coli NCTC 10418; type: cell-based, Escherichia coli; settings: SI = IC50 (µg/mL, HK-2)/MIC (µg/mL)
# Experimental: as §1
# [10] = system: E. coli PN21; assay: MIC, broth microdilution; type: cell-based, Escherichia coli; settings: SI = IC50 (µg/mL, HK-2)/MIC (µg/mL)
# Experimental: as §1
# [11] = system: range of Gram-negative bacterial pathogens; assay: MIC and selectivity index across the panel of isolates; type: cell-based; settings: mean SI over the isolates of Table S4
# Experimental: as §1
# [12] = system: HK-2 cells; assay: MTT cytotoxicity assay; type: cell-based, Human; settings: 72 h incubation, 0–1 mg/mL polymyxin base, ±SEM (n = 18)
# Experimental: A 3-(4,5-dimethylthiazol-2-yl)-2,5-diphenyltetrazolium bromide (MTT) assay was used to measure cell viability and proliferation of HK-2 cells. Cells were seeded into sterile 96-well microtitre plates at 1 × 10^5 cells/mL (100 µL/well) and allowed to adhere for 24 h at 37 °C. The following day, the old medium was replaced with test compounds (0–1 mg/mL polymyxin base) dissolved in filter-sterilised K-SFM. After 67 h incubation at 37 °C, filter-sterilised MTT solution (20 µL of a 5 mg/mL solution in PBS) was added to each well and incubated for a further 5 h at 37 °C. Finally, the medium was carefully removed, and the formazan crystals were solubilised in DMSO (100 µL) for 30 min. Absorbance was measured at 550 nm using a Fluostar Omega microplate reader. The results are stated as percentage cell viability compared with the untreated control cells. Data are expressed as mean ± SEM (n = 18).
# [13] = system: A. baumannii 7789; assay: Time-to-kill (TTK) in PK–PD model; type: cell-based, Acinetobacter baumannii; settings: 0.25 µg/mL colistin base, after 4 h
# Experimental: A modified experimental set-up was used to investigate the concentration- and time-dependent antimicrobial activity of test compounds using a TTK assay (48 h). […] The OC contained MH broth inoculated with A. baumannii 7789 (5 × 10^5 CFU/mL). Samples were collected from the OC (0, 2, 4, 6, 24 and 48 h) and colony counts (CFU/mL) determined using drop counts. Treatments were considered bactericidal if the reduction in viable bacterial counts was ≥3 log10 CFU/mL (equivalent to 99.9% of the initial inoculum) and bacteriostatic if the decrease was <3 log10 CFU/mL [33, 34]. Growth (no test compounds) and sterility (no bacteria) controls were also performed.
substance,measurement,setting,value
colistin sulphate,Selectivity index (SI) value,[1],52
same,Selectivity index (SI) value,[2],52
same,Selectivity index (SI) value,[3],104
same,Selectivity index (SI) value,[4],208
same,MIC,"[5]; AS (artificial sputum) medium, resazurin read-out",1 μg/mL Drug Base
same,MIC,[5]; MH broth (Table S7 comparison with AS medium),0.125 μg/mL Drug Base
same,Selectivity index (SI) value,"[5]; SI = IC50 (µg/mL, HK-2)/MIC (µg/mL), K. pneumoniae KP05 506",208
same,MIC,"[5]; alginate lyase in MH broth, 0 U/mL",0.008 μg/mL Drug Base
same,MIC,"[5]; alginate lyase in MH broth, 1 U/mL",0.063 μg/mL Drug Base
same,MIC,"[5]; alginate lyase in MH broth, 10 U/mL",0.008 μg/mL Drug Base
same,MIC,"[5]; pre-incubation with alginate lyase 0 U/mL (3 mg/mL in PBS pH 7, 37 °C, 24 h), then MIC in MH broth",0.008 μg/mL Drug Base
same,MIC,"[5]; pre-incubation with alginate lyase 1 U/mL (3 mg/mL in PBS pH 7, 37 °C, 24 h), then MIC in MH broth",0.004 μg/mL Drug Base
same,MIC,"[5]; pre-incubation with alginate lyase 10 U/mL (3 mg/mL in PBS pH 7, 37 °C, 24 h), then MIC in MH broth",0.004 μg/mL Drug Base
same,MIC,"[6]; MH broth, mucin 0%, resazurin read-out",0.063 μg/mL Drug Base
same,Selectivity index (SI) value,"[6]; SI = IC50 (µg/mL, HK-2)/MIC (µg/mL), K. pneumoniae IR25",413
same,Selectivity index (SI) value,[7],52
same,Selectivity index (SI) value,[8],104
same,Selectivity index (SI) value,[9],3
same,Selectivity index (SI) value,[10],3
same,"Selectivity index (SI) value, Mean",[11],184
same,"Half maximal inhibitory concentration (IC50), cytotoxicity",[12],26 µg/mL
same,"viable bacterial counts, fold lower compared to the control",[13],~ 5 fold
same,"viable bacterial counts, fold lower compared to the initial starting bacterial concentration",[13],~ 2 fold
